ChEMBL document CHEMBL3826913 (Eur J Med Chem, 2016)

Assay: Aqueous solubility of compound
Type: physicochemical
Conditions: buffer

Row | Structure (SMILES) | solubility
1 | Nc1ccc(-c2nc(O)c3cccc(O)c3n2)cc1 | soluble
2 | Oc1ccc(-c2nc(O)c3cccc(O)c3n2)cc1 | soluble
3 | O=c1[nH]c(-c2ccc(Cl)cc2)nc2c(O)cccc12 | soluble
4 | Oc1nc(-c2ccccc2)nc2c(O)cccc12 | soluble
5 | Cc1ccc(-c2nc3c(O)cccc3c(=O)[nH]2)cc1 | soluble
6 | O=c1[nH]c(-c2ccc(Br)cc2)nc2c(O)cccc12 | soluble
